Biological target: recombinant human or murine heat shock protein 70 (hsp70) (human or murine), P0DMV8
Assay: binding inhibition assay as in Example 2, on hsp70

Protein sequences, listed by entry. Tags and fused reporters are not part of them.
recombinant human or murine heat shock protein 70 (hsp70) (human or murine), P0DMV8, UniProt P0DMV8, whole entry: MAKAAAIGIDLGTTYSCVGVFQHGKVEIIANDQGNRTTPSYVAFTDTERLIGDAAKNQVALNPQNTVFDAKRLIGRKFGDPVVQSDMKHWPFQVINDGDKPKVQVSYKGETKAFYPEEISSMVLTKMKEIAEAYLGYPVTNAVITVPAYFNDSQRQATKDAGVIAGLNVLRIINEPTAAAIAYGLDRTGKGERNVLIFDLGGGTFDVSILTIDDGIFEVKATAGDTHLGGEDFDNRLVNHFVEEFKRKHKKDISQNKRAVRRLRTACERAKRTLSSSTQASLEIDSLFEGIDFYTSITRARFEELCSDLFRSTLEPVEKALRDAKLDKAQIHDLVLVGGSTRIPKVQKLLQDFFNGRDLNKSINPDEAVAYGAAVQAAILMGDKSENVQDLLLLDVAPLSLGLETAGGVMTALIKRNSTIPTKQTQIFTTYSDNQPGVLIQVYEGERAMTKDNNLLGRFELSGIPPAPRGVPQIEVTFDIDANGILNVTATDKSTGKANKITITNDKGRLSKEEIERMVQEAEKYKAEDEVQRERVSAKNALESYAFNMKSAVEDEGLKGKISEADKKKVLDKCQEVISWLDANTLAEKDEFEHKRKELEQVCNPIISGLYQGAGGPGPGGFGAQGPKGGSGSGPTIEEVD

Binder: SLLMWITQV (modifications not checked) [… (NY-ESO-1: 157-165 (165V))]
- Kd: 114 µM

Reference: patent US20050202033A1
